Assay results published in patent publication US8809618B2, “Transgenic mouse for screening and for studies of the pharmacodynamics and pharmacokinetics of ligands acting on the oestrogen receptor and its intracellular receptors, and method for the preparation thereof” (T.O.P. (Transgenic Operative Products) S.R.L., priority 2000, dated 2014).

Test system: oestrogen receptors
Test: Agonistic/antagonistic action of ER ligands: luciferase activity in tissues of line 2 ERE-luciferase transgenic mice
Settings: line 2 mice, s.c. 250 μg/kg, 6 hours
Description: To verify the expression of the transgene in the different tissues and its inducibility by oestrogens, 4 independent experiments were carried out on 8 female individuals of each line (4 heterozygotic and 4 homozygotic). For each experiment, two female individuals were ovariectomised. […] The suspension was frozen and thawed three times, and centrifuged for 30 minutes at 13,000 g; the supernatant was collected and equal quantities of protein, measured by the colorimetric method of Bradford, were subjected to enzymatic testing to reveal the activity of the enzyme luciferase. The method for detection of the activity of the reporter was carried out with a kit by the procedure recommended by the producer (Sigma), mixing ca. 20 μg of protein extract with the luciferin substrate in the presence of 0.5 mM ATP and 30 mM DTT and measuring the […] emitted using a luminometer (Lumat BL 9500, Berthold). […] Luciferase enzymatic activity was evaluated and plotted in the graph. […]

With 4-hydroxytamoxifen the “increase in level of luciferase in the liver (fold induction, treated/control)” value (liver) was 12 fold and the “increase in level of luciferase, second tissue (fold induction, treated/control)” value (second tissue not printed (brain, bone)) was 7 fold.
